System: 251 yitJ RNA
Format: binding, B. subtilis

CSCC[C@H](N)C(=O)O [methionine]
structural modulation of the RNA: no structural modulation was evident

— patent US8440810B2, “Riboswitches, methods for their use, and compositions for use with riboswitches” (Yale University, priority 2002, dated 2013)
